Data published in patent publication US7507717B2 (Xenome Ltd., priority 2002, dated 2009).

Chains of the proteins cited; added tags and fusions are not shown.
UniProt P23975, whole entry: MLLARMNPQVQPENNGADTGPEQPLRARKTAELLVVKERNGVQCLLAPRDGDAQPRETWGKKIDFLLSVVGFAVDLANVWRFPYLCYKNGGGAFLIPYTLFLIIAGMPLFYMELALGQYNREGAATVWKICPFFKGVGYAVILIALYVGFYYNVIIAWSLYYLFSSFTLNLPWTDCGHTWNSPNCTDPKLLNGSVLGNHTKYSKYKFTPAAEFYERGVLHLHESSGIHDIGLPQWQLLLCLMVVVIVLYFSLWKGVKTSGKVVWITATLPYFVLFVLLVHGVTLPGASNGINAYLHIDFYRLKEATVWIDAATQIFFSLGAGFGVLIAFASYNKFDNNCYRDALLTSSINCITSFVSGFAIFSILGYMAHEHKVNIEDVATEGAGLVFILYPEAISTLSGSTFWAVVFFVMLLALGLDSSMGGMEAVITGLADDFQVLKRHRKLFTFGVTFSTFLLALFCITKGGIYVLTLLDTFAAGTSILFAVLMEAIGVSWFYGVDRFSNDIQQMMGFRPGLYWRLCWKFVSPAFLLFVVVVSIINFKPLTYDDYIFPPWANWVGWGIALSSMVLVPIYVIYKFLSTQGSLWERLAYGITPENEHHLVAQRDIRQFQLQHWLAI

Tests used:
[1] = molecular target: T1, human noradrenaline transporter (hNET) (Homo sapiens, UniProt P23975); test: biochemical; type: binding; conditions: Av IC50 Displacement of 3H-nisoxetine from hNET
T1 construct: expressed in transfected cells; host or cells: COS-7 cells (ATCC), transient transfection with metafectene

[2] = molecular target: T1, human noradrenaline transporter (hNET); test: cell-based

CCCC[C@H](NC(=O)CNC(=O)[C@@H](N)CCCN)C(=O)N[C@H]1CSSC[C@@H](C(N)=O)NC(=O)[C@@H]2C[C@@H](O)CN2C(=O)[C@H](Cc2c[nH]cn2)NC(=O)[C@@H]2CSSC[C@H](NC1=O)C(=O)NCC(=O)N[C@@H](Cc1ccc(OC)cc1)C(=O)N[C@@H](CCCCN)C(=O)N[C@@H](CC(C)C)C(=O)N2 [compound 45]
IC50 [1]: 132 nM
IC50 [2]: 117 nM

CC(C)C[C@@H]1NC(=O)[C@H](CCCCN)NC(=O)[C@H](Cc2ccc(O)cc2)NC(=O)CNC(=O)[C@@H]2CSSC[C@H](NC1=O)C(=O)N[C@@H](Cc1c[nH]cn1)C(=O)N1C[C@H](O)C[C@H]1C(=O)N[C@H](C(N)=O)CSSC[C@H](NC(=O)[C@@H](NC(=O)CNC(=O)[C@@H](N)CCCCN(C)C)C(C)C)C(=O)N2 [compound 127]
IC50 [1]: 1550 nM
IC50 [2]: 347 nM

CC(C)C[C@@H]1NC(=O)[C@H](CCCCN)NC(=O)[C@H](Cc2ccc(O)cc2)NC(=O)CNC(=O)[C@@H]2CSSC[C@H](NC1=O)C(=O)N[C@@H](Cc1c[nH]cn1)C(=O)N1C[C@H](O)C[C@H]1C(=O)N[C@H](C(N)=O)CSSC[C@H](NC(=O)[C@@H](NC(=O)CNC(=O)[C@H](CC(N)=O)NC(=O)[C@@H](N)CCc1ccccc1)C(C)C)C(=O)N2 [compound 67]
IC50 [1]: 204 nM
IC50 [2]: 75.9 nM

COc1ccc(C[C@@H]2NC(=O)CNC(=O)[C@@H]3CSSC[C@H](NC(=O)[C@H](CC(C)C)NC(=O)[C@H](CCCCN)NC2=O)C(=O)N[C@@H](CCCNC(=N)N)C(=O)N2C[C@H](O)C[C@H]2C(=O)N[C@H](C(N)=O)CSSC[C@H](NC(=O)[C@H](CC(C)C)NC(=O)CNC(=O)[C@H](CCCNC(=N)N)NC(=O)[C@@H](N)Cc2ccc(O)cc2)C(=O)N3)cc1 [compound 13]
IC50 [1]: 14.1 nM
IC50 [2]: 25.1 nM

CCCC[C@H](NC(=O)CNC(=O)[C@H](CCCNC(=N)N)NC(=O)[C@@H](N)CCCN)C(=O)N[C@H]1CSSC[C@@H](C(N)=O)NC(=O)[C@@H]2C[C@@H](O)CN2C(=O)[C@H](CCCNC(=N)N)NC(=O)[C@@H]2CSSC[C@H](NC1=O)C(=O)NCC(=O)N[C@@H](Cc1ccc(OC)cc1)C(=O)N[C@@H](CCCCN)C(=O)N[C@@H](CC(C)C)C(=O)N2 [compound 17]
IC50 [1]: 28.2 nM
IC50 [2]: 61.7 nM

COc1ccc(C[C@@H]2NC(=O)CNC(=O)[C@@H]3CSSC[C@H](NC(=O)[C@H](CC(C)C)NC(=O)[C@H](CCCCN)NC2=O)C(=O)N[C@@H](Cc2c[nH]cn2)C(=O)N2CCC[C@H]2C(=O)N[C@H](C(N)=O)CSSC[C@H](NC(=O)[C@@H](NC(=O)CNC(=O)[C@H](CC(N)=O)NC(=O)[C@@H](N)Cc2ccc(O)cc2)C(C)C)C(=O)N3)cc1 [compound 86]
IC50 [1]: 316 nM
IC50 [2]: 110 nM

COc1ccc(C[C@@H]2NC(=O)CNC(=O)[C@@H]3CSSC[C@H](NC(=O)[C@H](CC(C)C)NC(=O)[C@H](CCCCN)NC2=O)C(=O)N[C@@H](Cc2c[nH]cn2)C(=O)N2C[C@H](O)C[C@H]2C(=O)N[C@H](C(N)=O)CSSC[C@H](NC(=O)[C@H](CC(C)C)NC(=O)CNC(=O)[C@H](CCCNC(=N)N)NC(=O)[C@@H](N)Cc2c[nH]c4ccccc24)C(=O)N3)cc1 [compound 16]
IC50 [1]: 28.8 nM
IC50 [2]: 36.3 nM

CCCC[C@H](NC(=O)CNC(=O)C[C@@H](N)CCCCN)C(=O)N[C@H]1CSSC[C@@H](C(N)=O)NC(=O)[C@@H]2C[C@@H](O)CN2C(=O)[C@H](Cc2c[nH]cn2)NC(=O)[C@@H]2CSSC[C@H](NC1=O)C(=O)NCC(=O)N[C@@H](Cc1ccc(O)cc1)C(=O)N[C@@H](CCCCN)C(=O)N[C@@H](CCC(C)C)C(=O)N2 [compound 27]
IC50 [1]: 56.2 nM
IC50 [2]: 57.5 nM

CCCC[C@H](NC(=O)CNC(=O)[C@H](CCCNC(=N)N)NC(=O)[C@H](Cc1ccc(O)cc1)NC(=O)[C@@H](N)CC(=O)O)C(=O)N[C@H]1CSSC[C@@H](C(N)=O)NC(=O)[C@@H]2C[C@@H](O)CN2C(=O)[C@H](CCCNC(=N)N)NC(=O)[C@@H]2CSSC[C@H](NC1=O)C(=O)NCC(=O)N[C@@H](Cc1ccc(OC)cc1)C(=O)N[C@@H](CCCCN)C(=O)N[C@@H](CC(C)C)C(=O)N2 [compound 55]
IC50 [1]: 166 nM
IC50 [2]: 170 nM

CCCC[C@H](NC(=O)CNC(=O)[C@@H](N)CCCN)C(=O)N[C@H]1CSSC[C@@H](C(N)=O)NC(=O)[C@@H]2C[C@@H](O)CN2C(=O)[C@H](Cc2c[nH]cn2)NC(=O)[C@@H]2CSSC[C@H](NC1=O)C(=O)NCC(=O)N[C@@H](Cc1ccc(OC)cc1)C(=O)N[C@@H](CCCCN)C(=O)N[C@@H](CCCC)C(=O)N2 [compound 48]
IC50 [1]: 132 nM
IC50 [2]: 67.6 nM

CC(C)CC[C@@H]1NC(=O)[C@H](CCCCN)NC(=O)[C@H](Cc2ccc(O)cc2)NC(=O)CNC(=O)[C@@H]2CSSC[C@H](NC1=O)C(=O)N[C@@H](Cc1c[nH]cn1)C(=O)N1CCC[C@H]1C(=O)N[C@H](C(N)=O)CSSC[C@H](NC(=O)[C@@H](NC(=O)CNC(=O)[C@H](CC(N)=O)NC(=O)[C@@H](N)Cc1ccc(O)cc1)C(C)C)C(=O)N2 [compound 56]
IC50 [1]: 166 nM
IC50 [2]: 79.4 nM

CCCC[C@H](NC(=O)CNC(=O)[C@@H](N)CC(N)=O)C(=O)N[C@H]1CSSC[C@@H](C(N)=O)NC(=O)[C@@H]2C[C@@H](O)CN2C(=O)[C@H](Cc2c[nH]cn2)NC(=O)[C@@H]2CSSC[C@H](NC1=O)C(=O)NCC(=O)N[C@@H](Cc1ccc(OC)cc1)C(=O)N[C@@H](CCCCN)C(=O)N[C@@H](CC(C)C)C(=O)N2 [compound 74]
IC50 [1]: 251 nM
IC50 [2]: 214 nM

CC(C)C[C@@H]1NC(=O)[C@H](CCCCN)NC(=O)[C@H](Cc2ccc(O)cc2)NC(=O)CNC(=O)[C@@H]2CSSC[C@H](NC1=O)C(=O)N[C@@H](Cc1c[nH]cn1)C(=O)N1C[C@H](O)C[C@H]1C(=O)N[C@H](C(N)=O)CSSC[C@H](NC(=O)[C@@H](NC(=O)CNC(=O)[C@@H](N)[C@@H](C)O)C(C)C)C(=O)N2 [compound 135]
IC50 [1]: 1950 nM
IC50 [2]: 490 nM

COc1ccc(C[C@@H]2NC(=O)CNC(=O)[C@@H]3CSSC[C@H](NC(=O)[C@H](CC(C)C)NC(=O)[C@H](CCCCN)NC2=O)C(=O)N2CCC[C@H]2C(=O)N[C@H](C(N)=O)CSSC[C@H](NC(=O)[C@@H](NC(=O)CNC(=O)[C@H](CC(N)=O)NC(=O)[C@@H](N)Cc2ccc(O)cc2)C(C)C)C(=O)N3)cc1 [compound 94]
IC50 [1]: 427 nM

COc1ccc(C[C@@H]2NC(=O)CNC(=O)[C@@H]3CSSC[C@H](NC(=O)[C@H](CC(C)C)NC(=O)[C@H](CCCCN)NC2=O)C(=O)N[C@@H](Cc2c[nH]cn2)C(=O)N2C[C@H](O)C[C@H]2C(=O)N[C@H](C(N)=O)CSSC[C@H](NC(=O)[C@@H](NC(=O)CNC(=O)[C@H](CC(N)=O)NC(=O)[C@@H](N)Cc2c[nH]c4ccccc24)C(C)C)C(=O)N3)cc1 [compound 46]
IC50 [1]: 132 nM

CC(C)C[C@@H]1NC(=O)[C@H](CCCCN)NC(=O)[C@H](Cc2ccc(O)cc2)NC(=O)[C@@H](CO)NC(=O)[C@@H]2CSSC[C@H](NC1=O)C(=O)N[C@@H](Cc1c[nH]cn1)C(=O)N1CCC[C@H]1C(=O)N[C@H](C(N)=O)CSSC[C@H](NC(=O)[C@@H](NC(=O)CNC(=O)[C@@H](N)CC(N)=O)C(C)C)C(=O)N2 [compound 188]
IC50 [1]: 95500 nM

CC(C)C[C@@H]1NC(=O)[C@H](CCCNC(N)=O)NC(=O)[C@H](Cc2ccc(O)cc2)NC(=O)CNC(=O)[C@@H]2CSSC[C@H](NC1=O)C(=O)N[C@@H](Cc1c[nH]cn1)C(=O)N1C[C@H](O)C[C@H]1C(=O)N[C@H](C(N)=O)CSSC[C@H](NC(=O)[C@@H](NC(=O)CNC(=O)[C@@H]1CCC(=O)N1)C(C)C)C(=O)N2 [compound 189]
IC50 [1]: 95500 nM

CCCC[C@H](NC(=O)[C@H](CC(N)=O)NC(=O)[C@@H](N)Cc1ccc(O)cc1)C(=O)N[C@H](C(=O)N[C@H]1CSSC[C@@H](C(N)=O)NC(=O)[C@@H]2CCCN2C(=O)[C@H](Cc2c[nH]cn2)NC(=O)[C@@H]2CSSC[C@H](NC1=O)C(=O)NCC(=O)N[C@@H](Cc1ccc(O)cc1)C(=O)N[C@@H](CCCCN)C(=O)N[C@@H](CC(C)C)C(=O)N2)C(C)C [compound 132]
IC50 [1]: 1820 nM

CC(C)C[C@@H]1NC(=O)[C@H](CCCCN)NC(=O)[C@H](Cc2ccc(O)cc2)NC(=O)CNC(=O)[C@@H]2CSSC[C@H](NC1=O)C(=O)N[C@@H](CCCNC(=N)N)C(=O)N1C[C@H](O)C[C@H]1C(=O)N[C@H](C(N)=O)CSSC[C@H](NC(=O)[C@@H](NC(=O)CNC(=O)C[C@@H](N)CCCCN)C(C)C)C(=O)N2 [compound 87]
IC50 [1]: 331 nM

COc1ccc(C[C@H](N)C(=O)N[C@@H](CC(N)=O)C(=O)NCC(=O)N[C@H](C(=O)N[C@H]2CSSC[C@@H](C(N)=O)NC(=O)[C@@H]3CCCN3C(=O)[C@H](Cc3c[nH]cn3)NC(=O)[C@@H]3CSSC[C@H](NC2=O)C(=O)NCC(=O)N[C@@H](Cc2ccc(O)cc2)C(=O)N[C@@H](CCCCN)C(=O)N[C@@H](CC(C)C)C(=O)N3)C(C)C)cc1 [compound 104]
IC50 [1]: 724 nM

CC(C)C[C@@H]1NC(=O)[C@H](CCCCN)NC(=O)[C@H](Cc2ccc(O)cc2)NC(=O)CNC(=O)[C@@H]2CSSC[C@H](NC1=O)C(=O)N[C@@H](Cc1c[nH]cn1)C(=O)N1Cc3ccccc3C[C@H]1C(=O)N[C@H](C(N)=O)CSSC[C@H](NC(=O)[C@@H](NC(=O)CNC(=O)[C@@H](N)CC(N)=O)C(C)C)C(=O)N2 [compound 102]
IC50 [1]: 708 nM

CC(C)C[C@@H]1NC(=O)[C@H](CCCCN)NC(=O)[C@H](Cc2c[nH]c3ccccc23)NC(=O)CNC(=O)[C@@H]2CSSC[C@H](NC1=O)C(=O)N[C@@H](Cc1c[nH]cn1)C(=O)N1C[C@H](O)C[C@H]1C(=O)N[C@H](C(N)=O)CSSC[C@H](NC(=O)[C@@H](NC(=O)CNC(=O)[C@@H]1CCC(=O)N1)C(C)C)C(=O)N2 [compound 187]
IC50 [1]: 91200 nM

CC(C)C[C@@H]1NC(=O)[C@H](CCCCN)NC(=O)[C@H](Cc2ccc(O)cc2)NC(=O)CNC(=O)[C@@H]2CSSC[C@H](NC1=O)C(=O)N[C@@H](Cc1c[nH]cn1)C(=O)N1C[C@H](O)C[C@H]1C(=O)N[C@H](C(N)=O)CSSC[C@H](NC(=O)[C@@H](NC(=O)[C@H](C)NC(=O)[C@@H](N)CC(N)=O)C(C)C)C(=O)N2 [compound 124]
IC50 [1]: 1350 nM

COc1ccc(C[C@@H]2NC(=O)CNC(=O)[C@@H]3CSSC[C@H](NC(=O)[C@H](CC(C)C)NC(=O)[C@H](CCCCN)NC2=O)C(=O)N[C@@H](CCCNC(=N)N)C(=O)N[C@@H](C)C(=O)N[C@H](C(N)=O)CSSC[C@H](NC(=O)[C@H](Cc2ccccc2)NC(=O)CNC(=O)CNC(=O)[C@@H](N)Cc2ccccc2)C(=O)N3)cc1 [compound 83]
IC50 [1]: 302 nM
